HCMV UL50-53 inh = disrupts HCMV UL50-UL53 complex binding; HTRF UL50-UL53 interaction, normalized percent inhibition; inhibition, % (concentration not given with the values); 190,000 compounds, 0.15% hits; in the data active = inhibition above about 27%, passing the limit was not always enough
GIV Gai3 FP = inhibitors of GIV GBA-motif binding to rat Galpha-i3. 210,000 tested, 0.42% active. percent of control (FP), % (concentration not given with the values). AID 1224905. Galpha-i3/FITC-GIV peptide fluorescence polarization, 90 min; active compounds read low; scaled: aluminum fluoride 0%, vehicle 100%;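 active = replicate mean at 85% of control or lower, very high polarization wells dropped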;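 note: wells of about 15 µL received 100 nL stock; the first replicate is given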
GIV-Gai FP conf = GIV-Galpha-i3 inhibition, FP confirmation; FITC-GIV peptide binding to Galphai3, fluorescence polarization; stronger effect = lower value; shares compounds with GIV Gai3 FP; fluorescence polarization, mP at 100 µM; 580 compounds, 38% hits;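 active = inhibition score of 15 or more, meaning 100 minus mean polarization as percent of control over three replicates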
GIV-Gai AS conf = GIV-Galpha-i3 inhibition, AlphaScreen confirmation; AlphaScreen Galphai3-GIV binding, purified proteins, 90 min; stronger effect = lower value; shares compounds with GIV Gai3 FP; AID 1259351; 580 compounds, 39% hits; AlphaScreen counts at 100 µM;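 active = inhibition score at or above a set limit, where the score is 100 minus the three-replicate mean percent of control signal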
Starred values were filed as active, the others as inactive; ! = not active in a repeat. The list is not random: actives were taken first. Their share in the collection is about 0.46%.

How did O=C1/C(=C/c2cn(-c3ccccc3)nc2-c2cccs2)SC(=S)N1C1CCS(=O)(=O)C1 (stereo not drawn) do in these assays?
HCMV UL50-53 inh: -18; GIV Gai3 FP: 94

What do the screens show for `O=P(O)(/C=C/c1ccccc1)/C=C/c1ccccc1`?
HCMV UL50-53 inh: -7; GIV Gai3 FP: 101

Results for CCOC(=O)N1CCN(C(=S)Nc2ccc(C)c(C)c2)CC1 ?
HCMV UL50-53 inh: -14

Results for CCOC(=O)N1CCN(C(=S)Nc2ccc3nsnc3c2)CC1 ?
HCMV UL50-53 inh: -76; GIV Gai3 FP: 77*; GIV-Gai FP conf: 61*; GIV-Gai AS conf: 21787

How did Cc1cc(C(F)(F)F)nc(CNC(=O)c2ccc3nccnc3c2)n1 do in these assays?
HCMV UL50-53 inh: -62

Results for Cc1ccc(Cc2nc(CCNS(=O)(=O)c3c(C)cc(C)cc3C)n[nH]2)cc1 ?
GIV Gai3 FP: 108

What do the screens show for `Oc1ccc(Cl)cc1C=Nc1cccc2nsnc12`?
HCMV UL50-53 inh: 26; GIV Gai3 FP: 74*; GIV-Gai FP conf: 58*; GIV-Gai AS conf: 6922*

How did Cc1ccc(C=Nc2cccc3nsnc23)c(O)c1 do in these assays?
HCMV UL50-53 inh: -33; GIV Gai3 FP: 101

What do the screens show for `CC1=C(C(=O)OC2CCCCC2)C(c2coc3ccc(Cl)cc3c2=O)C2=C(CCCC2=O)N1` (stereo not drawn)?
HCMV UL50-53 inh: -20; GIV Gai3 FP: 105

How did CC1=C(C(=O)OC2CCCCC2)C(c2coc3ccc(Cl)cc3c2=O)C2=C(CC(C)(C)CC2=O)N1 (stereo not drawn) do in these assays?
HCMV UL50-53 inh: -10; GIV Gai3 FP: 92; GIV-Gai FP conf: 63; GIV-Gai AS conf: 54497

What do the screens show for `Cc1ccc(COc2ccc(Br)cc2C=C2C(=O)NC(=S)NC2=O)cc1`?
HCMV UL50-53 inh: 8; GIV Gai3 FP: 100

What do the screens show for `O=C1NC(=O)C(=Cc2cc(Br)ccc2OCc2ccc(Cl)cc2)C(=O)N1`?
HCMV UL50-53 inh: 50*; GIV Gai3 FP: 78*; GIV-Gai FP conf: 62; GIV-Gai AS conf: 39620

Results for O=C(CCSCc1cnn(-c2ccccc2)c1-n1cccc1)N1CCN(c2ccccc2)CC1 ?
HCMV UL50-53 inh: 5; GIV Gai3 FP: 100

How did Cc1ccn2c(=O)cc(COc3ccc(NC(=O)Nc4ccc(Cl)cc4)cc3)nc2c1 do in these assays?
GIV Gai3 FP: 82*; GIV-Gai FP conf: 76; GIV-Gai AS conf: 24165

Results for Cc1ccn2c(=O)cc(COc3cccc(NC(=O)Nc4cccc(Cl)c4C)c3)nc2c1 ?
GIV Gai3 FP: 88; GIV-Gai FP conf: 75; GIV-Gai AS conf: 35234

What do the screens show for `Cc1c(Cl)cccc1NC(=O)Nc1cccc(OCc2cc(=O)n3ccccc3n2)c1`?
GIV Gai3 FP: 99

What do the screens show for `Cc1ccn2c(=O)cc(COc3ccc(NC(=O)Nc4cccc(Cl)c4)cc3)nc2c1`?
GIV Gai3 FP: 108

What do the screens show for `COc1cccc(C2CC(c3cccs3)=NN2C(=O)CSc2nnc(CNC(=O)c3cccs3)n2C)c1OC` (stereo not drawn)?
GIV Gai3 FP: 105

Results for CCCCCCCCCCCCCCP(=O)(O)O ?
HCMV UL50-53 inh: -13

How did O=c1cc(-c2ccccc2)oc2cc(Cl)ccc12 do in these assays?
HCMV UL50-53 inh: -8

Results for Nc1cc(N)c2cc(-c3ccccc3)oc2c1 ?
HCMV UL50-53 inh: 95*; GIV Gai3 FP: 81*; GIV-Gai FP conf: 66; GIV-Gai AS conf: 30925

Results for O=C1/C(=C/c2ccncc2)CC/C1=C\c1ccncc1 ?
HCMV UL50-53 inh: -34

How did CC1C/C(=C/c2ccncc2)C(=O)/C(=C/c2ccncc2)C1 (stereo not drawn) do in these assays?
GIV Gai3 FP: 68*; GIV-Gai FP conf: 44*; GIV-Gai AS conf: 8734*

What do the screens show for `Cc1cc(N)nn1C(=O)CSc1nc(Nc2ccc(F)cc2)c2ccccc2n1`?
GIV Gai3 FP: 112

What do the screens show for `CCCNCc1cc(=O)n2[nH]c(-c3ccccc3)nc2n1`?
HCMV UL50-53 inh: -21; GIV Gai3 FP: 96

How did CC1=CC(=C2C(=O)N(c3ccccc3)N=C2C)C=C(C)N1Cc1ccco1 do in these assays?
HCMV UL50-53 inh: 3

Results for CC1=CC(=C2C(=O)NC(=S)NC2=O)C=C(C)N1Cc1ccco1 ?
HCMV UL50-53 inh: -29; GIV Gai3 FP: 73*; GIV-Gai FP conf: 48*; GIV-Gai AS conf: 2400*

Results for CCCCCCCCc1cnc(-c2ccc(OCCCCCC)cc2)nc1 ?
GIV Gai3 FP: 113

Results for O=C1C=CC(=O)C(c2ccc(C(=O)O)cc2)=C1 ?
HCMV UL50-53 inh: -8; GIV Gai3 FP: 70*; GIV-Gai FP conf: 55*; GIV-Gai AS conf: 2443*

What do the screens show for `CC(C)c1ccc(C2=CC(=O)C=CC2=O)cc1`?
HCMV UL50-53 inh: -10; GIV Gai3 FP: 107

What do the screens show for `CCOc1ccc(Nc2c3c4c(cccc4[nH]c2=O)C(=O)c2ccccc2-3)cc1`?
HCMV UL50-53 inh: -30; GIV Gai3 FP: 32*; GIV-Gai FP conf: 28*; GIV-Gai AS conf: 39358

Results for COc1ccc(Nc2c3c4c(cccc4n(C)c2=O)C(=O)c2ccccc2-3)cc1 ?
GIV Gai3 FP: 103

Results for COc1ccc(-c2[nH]nc(-c3ccccc3)c2-c2ncc[nH]2)cc1 ?
HCMV UL50-53 inh: -31

How did COc1ccc(N2C(=O)c3c(C)nc4ccccc4c3C2=O)cn1 do in these assays?
HCMV UL50-53 inh: -38; GIV Gai3 FP: 84*; GIV-Gai FP conf: 55; GIV-Gai AS conf: 42415

How did COc1ccc(N2C(=O)c3c(C)nc4ccccc4c3C2=O)cc1OC do in these assays?
HCMV UL50-53 inh: -29; GIV Gai3 FP: 103

Results for CC(C)NCC(=O)Nc1ccc(S(N)(=O)=O)cc1 ?
HCMV UL50-53 inh: -23

Results for Nc1cccc2c1C(=O)N(CC(=O)O)C2=O ?
HCMV UL50-53 inh: -41; GIV Gai3 FP: 81*; GIV-Gai FP conf: 72; GIV-Gai AS conf: 47777

Results for Nc1cccc2c1C(=O)N(CC(=O)NC13CC4CC(CC(C4)C1)C3)C2=O ?
HCMV UL50-53 inh: -17

What do the screens show for `Oc1ccc(Cl)cc1C1=Nc2ccccc2N=C(c2ccc(Cl)cc2)C1`?
GIV Gai3 FP: 99

Results for Oc1ccccc1C1=Nc2ccccc2N=C(c2ccc(Cl)cc2)C1 ?
HCMV UL50-53 inh: -1; GIV Gai3 FP: 72*!; GIV-Gai FP conf: 68; GIV-Gai AS conf: 44887

Four structures already listed, ordered by length of the SMILES, lowest first:
Results for CCCCCCCCc1cnc(-c2ccc(OCCCCCC)cc2)nc1 ?
GIV Gai3 FP: 113

What do the screens show for `Oc1ccc(Cl)cc1C1=Nc2ccccc2N=C(c2ccc(Cl)cc2)C1`?
GIV Gai3 FP: 99

Results for COc1ccc(-c2[nH]nc(-c3ccccc3)c2-c2ncc[nH]2)cc1 ?
HCMV UL50-53 inh: -31

What do the screens show for `CCOc1ccc(Nc2c3c4c(cccc4[nH]c2=O)C(=O)c2ccccc2-3)cc1`?
HCMV UL50-53 inh: -30; GIV Gai3 FP: 32*; GIV-Gai FP conf: 28*; GIV-Gai AS conf: 39358

Following part.
Results for COC(=O)C1=C(C)Nc2ncnn2C1c1ccncc1 (stereo not drawn) ?
HCMV UL50-53 inh: -2; GIV Gai3 FP: 102

How did CCOc1ccccc1CNC(=O)c1cc2cc(S(=O)(=O)N3CCCCC3)ccc2n1C do in these assays?
GIV Gai3 FP: 98

How did Cn1c(C(=O)NCc2ccccc2F)cc2cc(S(=O)(=O)N3CCCCC3)ccc21 do in these assays?
GIV Gai3 FP: 89; GIV-Gai FP conf: 79; GIV-Gai AS conf: 33586

How did O=C1/C(=C/c2ccc(Cl)cc2)C=C(c2ccccc2)N1c1ccccc1 do in these assays?
GIV Gai3 FP: 125

Results for O=C1/C(=C/c2ccc(Cl)cc2)C=C(c2ccccc2)N1c1ccc(Cl)cc1 ?
GIV Gai3 FP: 82*; GIV-Gai FP conf: 103; GIV-Gai AS conf: 40363

Screening results as filed in PubChem.
